# This is a selection; strong and weak results do not stand in their true shares. Active and inactive are the calls of the source. No stated cut-off is given here; in the data, active means activation above about 2.2%; inactive means the rest.
# Test: agonists of NOTCH signaling (AID 434982)
# Conditions: NOTCH signaling luciferase reporter cells, luminescence; at 2.5 µM; stronger effect = higher value
row,SMILES,activation
1,O=C(OC1CN2CCC1CC2)c1cccc([N+](=O)[O-])c1 (configuration not stated),inactive: -0.25%
2,CCOC(=O)/C(=N/Nc1ccc([N+](=O)[O-])cc1)N1CC1,inactive: 0.06%
